Three molecules from paper PMC9939304 (Acta Pharmaceutica Sinica. B, 2022) can be followed below.

One data set addresses T1, FXR (Homo sapiens, UniProt Q96RI1).
T1 sequence (Q96RI1 1-486): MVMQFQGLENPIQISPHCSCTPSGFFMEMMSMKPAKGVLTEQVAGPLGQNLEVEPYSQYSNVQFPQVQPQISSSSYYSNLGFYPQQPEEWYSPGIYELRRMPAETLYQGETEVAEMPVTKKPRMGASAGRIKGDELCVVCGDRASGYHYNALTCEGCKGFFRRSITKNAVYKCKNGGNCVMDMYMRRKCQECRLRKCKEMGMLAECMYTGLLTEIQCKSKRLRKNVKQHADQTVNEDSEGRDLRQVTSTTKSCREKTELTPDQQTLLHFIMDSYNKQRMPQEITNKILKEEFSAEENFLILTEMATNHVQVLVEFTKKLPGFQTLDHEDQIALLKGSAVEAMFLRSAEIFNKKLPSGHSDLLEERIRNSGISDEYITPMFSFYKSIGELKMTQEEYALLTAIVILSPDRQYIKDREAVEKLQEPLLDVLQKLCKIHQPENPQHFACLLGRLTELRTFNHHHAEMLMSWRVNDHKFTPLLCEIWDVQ
The data set is classed as cell-based. The conditions noted are these: HK-2 cells.

Data set [1] in a line: In vivo tissue uptake clearance. The conditions noted are these: iv metformin 10 mg/kg, within 3 min; liver; BDL rats.
The next data set has as its system OCT2 protein. Description: OCT2 protein expression in Caco-2 cells. Particulars: 48 h. The data set is classed as cell-based, human.

Turning to `CC(C)c1onc(-c2c(Cl)cccc2Cl)c1COc1ccc(/C=C/c2cccc(C(=O)O)c2)c(Cl)c1` [GW4064], the “Expressions of SHP and FGF19 mRNA” value at FXR is “significantly upregulate”.

`CN(C)C(=N)N=C(N)N` [metformin]: the “In vivo hepatic uptake of metformin, BDL vs Sham” value in data set [1] is listed as “little affects”.

With `C=CC1=C(C)/C(=C/c2[nH]c(Cc3[nH]c(/C=C4\NC(=O)C(C)=C4C=C)c(C)c3CCC(=O)O)c(CCC(=O)O)c2C)NC1=O` [bilirubin], the “Concentration-dependent effect on expressions of OCT2” value in the data set on OCT2 protein (CDCA 25, 50, 100 μmol/L, bilirubin 10, 25, 50 μmol/L) is “concentration-dependently increase”. Also, the “Expressions of OCT2 protein by FXR agonists” value in the data set on OCT2 protein (CDCA 100, bilirubin 50, GW4064 1 μmol/L) is “induce expressions of OCT2 protein”.
